Measurements: patent publication US4479951A, “1.4;3.6-Dianhydrohexitol nitrates substituted by purine bases, processes for their preparation and pharmaceutical compositions” (Dr. Willmar Schwabe GmbH & Co., priority 1980, dated 1984)

System: mongrel dogs
Assay: circulatory-pharmacological effectiveness on the narcotised dog, intravenous administration
Assay type: in vivo

## O=[N+]([O-])O[C@H]1CO[C@H]2[C@@H]1OC[C@H]2O[N+](=O)[O-]
40 min after i.v. 1 mg/kg
  APdiast: diastolic aorta pressure: 101.2 mm.Hg
  APsyst: systolic aorta pressure: 158.4 mm.Hg
  BFFem: blood flow in the A. femoralis, referred to 20 kg. body weight: 42.9 mL/min
  HF: heart frequency: 108.0 min⁻¹
  HLL: heart capacity left, referred to 20 kg. body weight: 0.76 W
  HLR: heart capacity right, referred to 20 kg. body weight: 80.5 mW
  HZV: heart minute volume, referred to 20 kg. body weight: 3.0 min⁻¹
  LVEDP: end diastolic pressure in the left ventricle: 7.60 mm.Hg
  PAP: average pressure in the A. pulmonalis: 14.0 ±1.5 mm.Hg
  PRA: pressure in the right atrium: 2.34 mm.Hg
  SV: beat volume, referred to 20 kg. body weight: 27.7 mL
  WAP: pulmonalis resistance, referred to 20 kg. body weight: 0.28 U
  WFem: femoralis resistance, referred to 20 kg. body weight: 0.40 KU
  WTP: total peripheral resistance, referred to 20 kg. body weight: 5.41 U
  dp/dt: rate of pressure increase in the left ventricle: 2343.7 mm.Hg/sec.
50 min after i.v. 1 mg/kg
  APdiast: diastolic aorta pressure: 101.2 mm.Hg
  APsyst: systolic aorta pressure: 157.5 mm.Hg
  BFFem: blood flow in the A. femoralis, referred to 20 kg. body weight: 43.9 mL/min
  HF: heart frequency: 109.2 min⁻¹
  HLL: heart capacity left, referred to 20 kg. body weight: 0.77 W
  HLR: heart capacity right, referred to 20 kg. body weight: 81.1 mW
  HZV: heart minute volume, referred to 20 kg. body weight: 3.0 min⁻¹
  LVEDP: end diastolic pressure in the left ventricle: 7.60 mm.Hg
  PAP: average pressure in the A. pulmonalis: 14.0 ±1.6 mm.Hg
  PRA: pressure in the right atrium: 2.29 mm.Hg
  SV: beat volume, referred to 20 kg. body weight: 27.4 mL
  WAP: pulmonalis resistance, referred to 20 kg. body weight: 0.27 U
  WFem: femoralis resistance, referred to 20 kg. body weight: 0.39 KU
  WTP: total peripheral resistance, referred to 20 kg. body weight: 5.38 U
  dp/dt: rate of pressure increase in the left ventricle: 2306.2 mm.Hg/sec.
60 min after i.v. 1 mg/kg
  APdiast: diastolic aorta pressure: 101.2 mm.Hg
  APsyst: systolic aorta pressure: 159.4 mm.Hg
  BFFem: blood flow in the A. femoralis, referred to 20 kg. body weight: 42.3 mL/min
  HF: heart frequency: 107.5 min⁻¹
  HLL: heart capacity left, referred to 20 kg. body weight: 0.78 W
  HLR: heart capacity right, referred to 20 kg. body weight: 81.9 mW
  HZV: heart minute volume, referred to 20 kg. body weight: 3.0 min⁻¹
  LVEDP: end diastolic pressure in the left ventricle: 7.77 mm.Hg
  PAP: average pressure in the A. pulmonalis: 14.1 mm.Hg
  PRA: pressure in the right atrium: 2.53 mm.Hg
  SV: beat volume, referred to 20 kg. body weight: 28.2 mL
  WAP: pulmonalis resistance, referred to 20 kg. body weight: 0.26 U
  WFem: femoralis resistance, referred to 20 kg. body weight: 0.41 KU
  WTP: total peripheral resistance, referred to 20 kg. body weight: 5.32 U
  dp/dt: rate of pressure increase in the left ventricle: 2250.0 mm.Hg/sec.
90 min after i.v. 1 mg/kg
  APdiast: diastolic aorta pressure: 99.4 mm.Hg
  APsyst: systolic aorta pressure: 163.2 mm.Hg
  BFFem: blood flow in the A. femoralis, referred to 20 kg. body weight: 44.4 mL/min
  HF: heart frequency: 109.5 min⁻¹
  HLL: heart capacity left, referred to 20 kg. body weight: 0.77 W
  HLR: heart capacity right, referred to 20 kg. body weight: 85.4 mW
  HZV: heart minute volume, referred to 20 kg. body weight: 3.0 min⁻¹
  LVEDP: end diastolic pressure in the left ventricle: 7.98 mm.Hg
  PAP: average pressure in the A. pulmonalis: 14.6 ±1.8 mm.Hg
  PRA: pressure in the right atrium: 2.53 mm.Hg
  SV: beat volume, referred to 20 kg. body weight: 27.7 mL
  WAP: pulmonalis resistance, referred to 20 kg. body weight: 0.27 U
  WFem: femoralis resistance, referred to 20 kg. body weight: 0.38 KU
  WTP: total peripheral resistance, referred to 20 kg. body weight: 5.35 U
  dp/dt: rate of pressure increase in the left ventricle: 2231.2 mm.Hg/sec.
120 min after i.v. 1 mg/kg
  APdiast: diastolic aorta pressure: 97.5 mm.Hg
  APsyst: systolic aorta pressure: 161.2 mm.Hg
  BFFem: blood flow in the A. femoralis, referred to 20 kg. body weight: 49.3 mL/min
  HF: heart frequency: 104.2 min⁻¹
  HLL: heart capacity left, referred to 20 kg. body weight: 0.72 W
  HLR: heart capacity right, referred to 20 kg. body weight: 81.5 mW
  HZV: heart minute volume, referred to 20 kg. body weight: 2.9 min⁻¹
  LVEDP: end diastolic pressure in the left ventricle: 8.34 mm.Hg
  PAP: average pressure in the A. pulmonalis: 15.0 ±2.0 mm.Hg
  PRA: pressure in the right atrium: 2.81 mm.Hg
  SV: beat volume, referred to 20 kg. body weight: 28.1 mL
  WAP: pulmonalis resistance, referred to 20 kg. body weight: 0.28 U
  WFem: femoralis resistance, referred to 20 kg. body weight: 0.33 KU
  WTP: total peripheral resistance, referred to 20 kg. body weight: 5.36 U
  dp/dt: rate of pressure increase in the left ventricle: 2118.7 mm.Hg/sec.
150 min after i.v. 1 mg/kg
  APdiast: diastolic aorta pressure: 95.6 mm.Hg
  APsyst: systolic aorta pressure: 161.2 mm.Hg
  BFFem: blood flow in the A. femoralis, referred to 20 kg. body weight: 51.3 mL/min
  HF: heart frequency: 103.7 min⁻¹
  HLL: heart capacity left, referred to 20 kg. body weight: 0.74 W
  HLR: heart capacity right, referred to 20 kg. body weight: 79.7 mW
  HZV: heart minute volume, referred to 20 kg. body weight: 3.0 min⁻¹
  LVEDP: end diastolic pressure in the left ventricle: 7.78 mm.Hg
  PAP: average pressure in the A. pulmonalis: 14.6 ±1.5 mm.Hg
  PRA: pressure in the right atrium: 3.0 mm.Hg
  SV: beat volume, referred to 20 kg. body weight: 28.6 mL
  WAP: pulmonalis resistance, referred to 20 kg. body weight: 0.29 U
  WFem: femoralis resistance, referred to 20 kg. body weight: 0.32 KU
  WTP: total peripheral resistance, referred to 20 kg. body weight: 5.22 U
  dp/dt: rate of pressure increase in the left ventricle: 2025.0 mm.Hg/sec.
180 min after i.v. 1 mg/kg
  APdiast: diastolic aorta pressure: 95.6 mm.Hg
  APsyst: systolic aorta pressure: 161.2 mm.Hg
  BFFem: blood flow in the A. femoralis, referred to 20 kg. body weight: 53.7 mL/min
  HF: heart frequency: 103.7 min⁻¹
  HLL: heart capacity left, referred to 20 kg. body weight: 0.79 W
  HLR: heart capacity right, referred to 20 kg. body weight: 92.4 mW
  HZV: heart minute volume, referred to 20 kg. body weight: 3.2 min⁻¹
  LVEDP: end diastolic pressure in the left ventricle: 7.60 mm.Hg
  PAP: average pressure in the A. pulmonalis: 15.5 ±1.6 mm.Hg
  PRA: pressure in the right atrium: 2.81 mm.Hg
  SV: beat volume, referred to 20 kg. body weight: 30.6 mL
  WAP: pulmonalis resistance, referred to 20 kg. body weight: 0.31 U
  WFem: femoralis resistance, referred to 20 kg. body weight: 0.32 KU
  WTP: total peripheral resistance, referred to 20 kg. body weight: 4.89 U
  dp/dt: rate of pressure increase in the left ventricle: 2043.7 mm.Hg/sec.
Before i.v. 1 mg/kg (v)
  APdiast: diastolic aorta pressure: 95.6 mm.Hg
  APsyst: systolic aorta pressure: 166.9 mm.Hg
  BFFem: blood flow in the A. femoralis, referred to 20 kg. body weight: 44.9 mL/min
  HF: heart frequency: 109.5 min⁻¹
  HLL: heart capacity left, referred to 20 kg. body weight: 0.76 W
  HLR: heart capacity right, referred to 20 kg. body weight: 85.1 mW
  HZV: heart minute volume, referred to 20 kg. body weight: 3.03 min⁻¹
  LVEDP: end diastolic pressure in the left ventricle: 7.69 mm.Hg
  PAP: average pressure in the A. pulmonalis: 14.3 ±1.2 mm.Hg
  PRA: pressure in the right atrium: 2.06 mm.Hg
  SV: beat volume, referred to 20 kg. body weight: 27.7 mL
  WAP: pulmonalis resistance, referred to 20 kg. body weight: 0.31 U
  WFem: femoralis resistance, referred to 20 kg. body weight: 0.39 KU
  WTP: total peripheral resistance, referred to 20 kg. body weight: 5.27 U
  dp/dt: rate of pressure increase in the left ventricle: 2268.7 mm.Hg/sec.
